pIC50: −log10 of the molar value. Where only a bound is given, the exact number is not on record here.

By UniProt entry, the sequences of proteins in these tests, tags left out.
UniProt O14744, whole entry: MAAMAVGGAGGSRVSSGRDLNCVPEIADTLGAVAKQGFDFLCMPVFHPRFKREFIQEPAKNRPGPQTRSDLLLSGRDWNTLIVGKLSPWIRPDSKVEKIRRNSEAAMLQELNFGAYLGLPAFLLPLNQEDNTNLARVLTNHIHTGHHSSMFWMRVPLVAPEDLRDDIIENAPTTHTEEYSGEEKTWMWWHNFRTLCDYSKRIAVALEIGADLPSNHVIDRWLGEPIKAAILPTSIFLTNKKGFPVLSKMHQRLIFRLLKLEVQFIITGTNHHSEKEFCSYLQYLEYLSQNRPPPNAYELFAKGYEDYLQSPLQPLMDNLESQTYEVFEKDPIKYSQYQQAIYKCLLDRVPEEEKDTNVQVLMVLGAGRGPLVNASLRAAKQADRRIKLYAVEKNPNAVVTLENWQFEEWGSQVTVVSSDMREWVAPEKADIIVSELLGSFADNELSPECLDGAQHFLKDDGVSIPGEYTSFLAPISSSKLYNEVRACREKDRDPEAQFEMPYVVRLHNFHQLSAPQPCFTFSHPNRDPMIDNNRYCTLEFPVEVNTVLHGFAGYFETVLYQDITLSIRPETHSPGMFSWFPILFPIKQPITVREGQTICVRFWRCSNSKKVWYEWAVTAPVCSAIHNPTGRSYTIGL
UniProt Q9BQA1, whole entry partner: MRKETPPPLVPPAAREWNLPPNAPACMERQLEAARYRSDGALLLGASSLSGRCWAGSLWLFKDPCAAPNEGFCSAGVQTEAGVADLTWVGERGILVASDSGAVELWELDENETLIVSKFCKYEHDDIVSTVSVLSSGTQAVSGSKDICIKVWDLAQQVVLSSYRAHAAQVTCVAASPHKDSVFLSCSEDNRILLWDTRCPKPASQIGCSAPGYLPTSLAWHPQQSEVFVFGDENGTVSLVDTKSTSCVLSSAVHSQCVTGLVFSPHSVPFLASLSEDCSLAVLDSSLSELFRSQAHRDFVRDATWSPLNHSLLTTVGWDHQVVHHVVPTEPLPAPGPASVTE

The target of experiment [1] is T1, PRMT5 (Homo sapiens, UniProt O14744). Kind of experiment: PRMT5 biochemical IC50 assay with MTA as cofactor. Conditions: read-out: MTA IC50.
For experiment [2], the system named is HAP1 MTAP-deleted cell line. The experiment is described as follows: Viability assay, MTAP-deleted cell line. Conditions: read-out: HAP1 MTAP deleted viability.
The target of experiment [3] is T1, PRMT5. Kind of experiment: PRMT5 biochemical IC50 assay with SAM as cofactor. Conditions: read-out: SAM IC50.
Experiment [4] has as its system HAP1 MTAP-deleted cell line. The experiment is described as follows: SDMA in-cell western assay, HAP1 MTAP-deleted. In kind it is cell-based.
Experiment [5] relates to HAP1 MTAP-intact cell line. The experiment is described as follows: SDMA in-cell western assay, HAP1 MTAP-intact. Conditions: read-out: MTAP HAP1 intact IC50.
Experiment [6] addresses T1, PRMT5. The experiment is described as follows: PRMT5 biochemical IC50 assay with no cofactor. Conditions: read-out: No Cofactor/rel IC50.

With `CCc1cc(NC(=O)C(=O)N2CC(C)C(F)(F)CC2c2ccc3[nH]ncc3c2)cnc1N` (single isomer, unassigned), the pIC50 at PRMT5 [1] is less than 6.30; in experiment [2], 5.00 to 6.00; at PRMT5 [3], less than 6.30; in experiment [4] (read-out: HAP1 MTAP deleted IC50, HAP1 MTAP-deleted), 6.00 to 7.00; in experiment [5], less than 6.00; at PRMT5 [6] it was less than 6.30. In addition, the MTAP intact/deleted ratio entry in experiment [4] (IC50 ratio HAP1 MTAP-intact vs HAP1 MTAP-deleted) is listed as “A (an IC50 ratio greater than or equal to 10 fold)”.

(Values after US11999727B2 (Tango Therapeutics, Inc., priority 2020, dated 2024).)
